Experimental findings from BindingDB's records for doi:10.1021/bi301387m (University of Auckland, 2013) are described below.

In the assay the target is T1, Anthranilate phosphoribosyltransferase (Mycobacterium tuberculosis (strain CDC 1551 / Oshkosh), UniProt P9WFX4).
T1 sequence (P9WFX4 whole entry): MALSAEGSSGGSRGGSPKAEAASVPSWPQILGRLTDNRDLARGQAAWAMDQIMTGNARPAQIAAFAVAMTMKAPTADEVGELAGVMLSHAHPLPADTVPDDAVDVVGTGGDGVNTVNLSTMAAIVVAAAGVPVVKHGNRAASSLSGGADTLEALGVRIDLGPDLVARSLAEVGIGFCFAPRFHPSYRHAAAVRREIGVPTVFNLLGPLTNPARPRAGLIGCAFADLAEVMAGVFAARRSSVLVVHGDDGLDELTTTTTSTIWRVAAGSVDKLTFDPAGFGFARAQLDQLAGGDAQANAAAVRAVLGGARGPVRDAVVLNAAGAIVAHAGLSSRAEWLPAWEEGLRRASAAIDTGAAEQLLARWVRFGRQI
Kind of assay: Fluoresence-based Assay.

pKi: −log10 of the molar value.

Regarding `O=C(O)c1ccccc1Cc1ccccc1` [ACS No 174], the pKi is 4.74.

Usually pKi stands for the negative decadic logarithm of the Ki, by convention in mol/L.
